# Values of other authors as cited in patent publication US10399924B2, “Deuterium substituted fumarate derivatives” (Biogen MA Inc., priority 2012, dated 2019).
# Details: ALS; cited from earlier work
smiles,measurement,value
Nc1nc2ccc(OC(F)(F)F)cc2s1 [riluzole],extension of survival,approximately 3 months
